Values of other authors as cited in US20110136106A1, “METHODS FOR DETECTING RICIN AND RELATED COMPOUNDS AND USES THEREOF” (published 2011).

Chains of the proteins cited; added tags and fusions are not shown. Lines headed by an entry give the natural chain unless they say otherwise; changes in a name come on top.
UniProt P22983: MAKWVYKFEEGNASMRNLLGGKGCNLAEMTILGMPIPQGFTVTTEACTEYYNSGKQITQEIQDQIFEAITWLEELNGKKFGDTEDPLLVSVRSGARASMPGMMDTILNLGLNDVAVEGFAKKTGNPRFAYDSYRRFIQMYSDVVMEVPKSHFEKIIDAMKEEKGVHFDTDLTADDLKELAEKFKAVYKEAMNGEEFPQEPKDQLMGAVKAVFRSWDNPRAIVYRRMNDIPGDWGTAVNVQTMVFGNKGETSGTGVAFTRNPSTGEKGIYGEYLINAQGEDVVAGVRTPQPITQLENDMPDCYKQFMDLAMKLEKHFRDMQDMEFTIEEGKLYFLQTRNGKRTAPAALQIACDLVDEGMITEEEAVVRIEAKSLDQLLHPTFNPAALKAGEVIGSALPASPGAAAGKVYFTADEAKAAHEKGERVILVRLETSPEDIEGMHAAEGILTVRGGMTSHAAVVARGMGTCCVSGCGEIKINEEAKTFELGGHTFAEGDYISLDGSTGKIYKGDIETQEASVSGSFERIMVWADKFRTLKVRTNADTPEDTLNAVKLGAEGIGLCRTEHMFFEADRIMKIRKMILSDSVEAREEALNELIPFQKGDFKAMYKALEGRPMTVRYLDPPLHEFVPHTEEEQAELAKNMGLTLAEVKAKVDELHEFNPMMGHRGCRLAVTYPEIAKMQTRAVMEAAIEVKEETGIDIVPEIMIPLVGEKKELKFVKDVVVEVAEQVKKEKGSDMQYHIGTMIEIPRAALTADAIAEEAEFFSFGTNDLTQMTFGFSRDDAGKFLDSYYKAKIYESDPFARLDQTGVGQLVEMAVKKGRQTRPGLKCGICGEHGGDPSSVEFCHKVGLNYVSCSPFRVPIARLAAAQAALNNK
UniProt P49435: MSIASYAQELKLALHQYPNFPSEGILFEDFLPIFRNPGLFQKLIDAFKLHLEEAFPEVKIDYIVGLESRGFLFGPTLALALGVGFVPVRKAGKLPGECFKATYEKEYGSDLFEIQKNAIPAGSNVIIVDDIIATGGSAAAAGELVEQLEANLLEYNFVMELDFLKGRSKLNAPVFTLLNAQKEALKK

What was measured:
PPDK = PPDK (Clostridium symbiosum, UniProt P22983); conditions: AMP as PPDK substrate [21]; cited from earlier work
APRTase = APRTase (Saccharomyces cerevisiae, UniProt P49435); conditions: adenine as APRTase substrate [16]; cited from earlier work

Row | SMILES | Km (PPDK) [µM] | Km (APRTase) [µM]
1 | Nc1ncnc2c1ncn2[C@@H]1O[C@H](COP(=O)(O)O)[C@@H](O)[C@H]1O | 9 | –
2 | Nc1ncnc2nc[nH]c12 | – | 9
